Measurements: patent US20150258082A1, “COMBINATION THERAPY WITH GLUTAMINASE INHIBITORS” (priority 2014, published 2015)
pIC50: −log10 of the molar value.

Protein sequences, listed by entry. Tags and fused reporters are not part of them. Residues count along the entry.
UniProt O94925, 137-598 isoform 3 limits assumed: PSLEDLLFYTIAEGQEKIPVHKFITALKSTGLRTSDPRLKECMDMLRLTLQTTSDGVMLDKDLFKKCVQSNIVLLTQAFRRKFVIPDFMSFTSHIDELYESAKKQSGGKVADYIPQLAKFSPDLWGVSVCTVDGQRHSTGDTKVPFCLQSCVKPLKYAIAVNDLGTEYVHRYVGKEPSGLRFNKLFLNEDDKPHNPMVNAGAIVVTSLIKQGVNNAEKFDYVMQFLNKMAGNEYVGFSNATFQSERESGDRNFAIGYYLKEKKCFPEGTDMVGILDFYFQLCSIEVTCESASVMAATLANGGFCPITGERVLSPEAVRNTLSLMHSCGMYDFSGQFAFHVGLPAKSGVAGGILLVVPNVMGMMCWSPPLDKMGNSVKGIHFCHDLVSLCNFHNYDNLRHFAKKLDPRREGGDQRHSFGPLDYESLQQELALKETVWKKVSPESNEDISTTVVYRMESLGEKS

Target: recombinant form of Glutaminase 1 (GAC) (Homo sapiens, UniProt O94925)
Experiment: Recombinant Enzyme Assay - Time Dependence (60 min preincubation)
Format: biochemical
Details: read-out: GAC Delta N2 IC50 60 min preinc

- pIC50: < 4.70
SMILES: CCCC(=O)OCN(C(=O)Cc1ccccc1)c1nnc(CCCCc2ccc(NC(=O)Cc3cccc(OC(F)(F)F)c3)nn2)s1
